This is an account of results in publication PMC7218274, “Application of human lymphoid cells for the evaluation of antivirals against human adenovirus type 19: Zalcitabine has superior activity compared to cidofovir” (Antiviral Chemistry & Chemotherapy, 2020).

The test system of the test is HAdV-19. Description: MTT-based antiviral assay, HAdV-19-infected MT-2 cells. Format: cell-based, Human adenovirus type 19. The method, then:
MT-2 cells and A549 cells were mixed with HAdV-19, 2× 10^5 cells/mL with 10^4 TCID50/mL and 1× 10^5 cells/mL with 3 × 10^3 TCID50/mL, respectively, in plate wells in the presence or absence of various concentrations of the compounds (MOI: 0.035 for MT-2 cells and 0.021 for A549). The plates were incubated for five days. At the end of the incubation period, CPE was determined using the MTT assay, as described previously.[11],[12] Thus, 25 µl of the MTT solution (7.5 mg/ml) in phosphate-buffered saline (Wako, Japan) was added to each well of the plate. Then, the plate was incubated at 37°C for 2 h. After incubation, 150 µl of medium was removed with care in order not to draw cells. To solubilize the formazan crystals and neutralize the viral infectivity, 100 μl of acidified isopropanol (4 ml concentrated HCl per 1 l of isopropanol) containing 10% (v/v) Triton X-100 was added to each well. Formazan crystals were completely solubilized by pipetting up and down, the absorbance at 560 nm of the wells was read by microplate reader (GloMax, Promega, Japan). […] The cytotoxicity of each compound was measured in parallel using the MTT assay. The 50% cytotoxicity concentration (CC50) was defined as the drug concentration that reduces cell viability by 50%.
On the technique in general: Formazan colour is commonly taken as a measure of viable cells.

Each structure is given as a SMILES string.

Consider `Cc1cn([C@H]2C[C@H](F)[C@@H](CO)O2)c(=O)[nH]c1=O` [FdT, 3′-deoxy-3′-fluorothymidine], for which the “SI (selectivity index, ratio of CC50 and EC50)” value was determined as 20.
